From ChEMBL document CHEMBL3244195, “Antidotes or organophosphate poisoning. 2. Thiadiazole-5-carboxaldoximes” (1979)

Legend:
Rattus norvegicus [1] = test: Reduction of diisopropyl fluorophosphate-induced hypothermia in rat at 80 mg/kg, ip administered 1 hr after diisopropyl fluorophosphate-challenge measured after 3 to 4 hrs relative to control; set-up: scale not given: the % may be the effect or the level left; conditions: route intraperitoneal
Rattus norvegicus [2] = test: Reduction of diisopropyl fluorophosphate-induced hypothermia in rat at 150 mg/kg, ip administered 1 hr after diisopropyl fluorophosphate-challenge measured after 3 to 4 hrs relative to control; set-up: scale not given: the % may be the effect or the level left; conditions: route intraperitoneal
Rattus norvegicus [3] = test: Reduction of paraoxon-induced hypothermia in rat at 80 mg/kg, ip administered 1 hr after paraoxon-challenge measured after 3 to 4 hrs relative to control; set-up: scale not given: the % may be the effect or the level left; conditions: route intraperitoneal
Rattus norvegicus [4] = test: Increase in soman-induced hypothermia in ip dosed rat administered 1 hr after soman-challenge (reference value: 2.47 +/- 0.15 degC)
Rattus norvegicus [5] = test: Reduction of diisopropyl fluorophosphate-induced hypothermia in rat at 250 mg/kg, ip administered 1 hr after diisopropyl fluorophosphate-challenge measured after 3 to 4 hrs relative to control; set-up: scale not given: the % may be the effect or the level left; conditions: route intraperitoneal
Mus musculus [6] = test: Antidotal effect in hybrid CC57 mouse assessed as protection against sarin-induced poisoning by measuring sarin approximate lethal dose at 100 mg/kg, ip dosed 1.5 mins after sarin challenge and measured after 24 hrs co-treated with 37.5 mg/kg, ip atropine sulfate (reference value: 460 ug/kg)
Mus musculus [7] = test: Antidotal effect in hybrid CC57 mouse assessed as therapeutic ratio for protection against sarin-induced poisoning by measuring sarin LD50 at 250 mg/kg, ip dosed 1.5 mins after sarin challenge and measured after 24 hrs co-treated with 37.5 mg/kg, ip atropine sulfate relative to sarin alone treated mouse
Rattus norvegicus [8] = test: Reduction of paraoxon-induced hypothermia in rat at 250 mg/kg, ip administered 1 hr after paraoxon-challenge measured after 3 to 4 hrs relative to control; set-up: scale not given: the % may be the effect or the level left; conditions: route intraperitoneal
Rattus norvegicus [9] = test: Antidotal effect in WAG rat assessed as protection against 5 X LD50 paraoxon-induced poisoning measured as time required to postpone onset of symptoms at 100 mg/kg, ip (reference value: 2.9 +/- 0.5 mins); conditions: route intraperitoneal
Rattus norvegicus [10] = test: Reduction of paraoxon-induced hypothermia in rat at 150 mg/kg, ip administered 1 hr after paraoxon-challenge measured after 3 to 4 hrs relative to control; set-up: scale not given: the % may be the effect or the level left; conditions: route intraperitoneal
Mus musculus [11] = test: Antidotal effect in hybrid CC57 mouse assessed as protection against sarin-induced poisoning by measuring sarin LD50 at 47.2 mg/kg, ip dosed 1.5 mins after sarin challenge and measured after 24 hrs co-treated with 37.5 mg/kg, ip atropine sulfate (reference value: 229 ug/kg)
Rattus norvegicus [12] = test: Reduction of diisopropyl fluorophosphate-induced hypothermia in rat at 160 mg/kg, ip administered 1 hr after diisopropyl fluorophosphate-challenge measured after 3 to 4 hrs relative to control; set-up: scale not given: the % may be the effect or the level left; conditions: route intraperitoneal
Rattus norvegicus [13] = test: Reduction of paraoxon-induced hypothermia in rat at 160 mg/kg, ip administered 1 hr after paraoxon-challenge measured after 3 to 4 hrs relative to control; set-up: scale not given: the % may be the effect or the level left; conditions: route intraperitoneal

Row | Structure (SMILES) | Activity (Rattus norvegicus [2]) | Activity (Rattus norvegicus [5]) | Ratio (Mus musculus [7]) | Activity (Rattus norvegicus [8]) | other results
1 | O/N=C/c1cc[n+](COC[n+]2ccc(/C=N/O)cc2)cc1.[Cl-].[Cl-] | 60% | – | – | – | Activity (Rattus norvegicus [1]): 40%; Activity (Rattus norvegicus [3]): 30%
2 | [Na+].[O-]/N=C/c1cnns1 | – | 53% | 5 | 63% | T (Rattus norvegicus [4]): 3.05 °C; LD (Mus musculus [6]): 1.5 mg/kg; Time (Rattus norvegicus [9]): 3.7 min
3 | Cc1nnc(/C=N/[O-])s1.[Na+] | – | < 10% | 4.2 | < 10% | –
4 | CS(=O)(=O)[O-].C[n+]1ccccc1C=NO | 0% | – | – | – | Activity (Rattus norvegicus [10]): 23%; LD50 (Mus musculus [11]): 0.762 mg/kg
5 | Cc1nsc(/C=N/[O-])n1.[Na+] | – | 23% | 5.6 | 60% | –
6 | CCN(CC)CCCOC(=O)/C=N\O | – | – | – | – | Activity (Rattus norvegicus [12]): 47%; Activity (Rattus norvegicus [13]): 83%
7 | CC(=O)/C=N/O | 40% | – | – | – | –
